Nine compounds from PubChem BioAssay AID1030 (National Center for Advancing Translational Sciences (NCATS), 2008) can be followed below.

Chains of the proteins cited; added tags and fusions are not shown.
UniProt P00352, whole entry: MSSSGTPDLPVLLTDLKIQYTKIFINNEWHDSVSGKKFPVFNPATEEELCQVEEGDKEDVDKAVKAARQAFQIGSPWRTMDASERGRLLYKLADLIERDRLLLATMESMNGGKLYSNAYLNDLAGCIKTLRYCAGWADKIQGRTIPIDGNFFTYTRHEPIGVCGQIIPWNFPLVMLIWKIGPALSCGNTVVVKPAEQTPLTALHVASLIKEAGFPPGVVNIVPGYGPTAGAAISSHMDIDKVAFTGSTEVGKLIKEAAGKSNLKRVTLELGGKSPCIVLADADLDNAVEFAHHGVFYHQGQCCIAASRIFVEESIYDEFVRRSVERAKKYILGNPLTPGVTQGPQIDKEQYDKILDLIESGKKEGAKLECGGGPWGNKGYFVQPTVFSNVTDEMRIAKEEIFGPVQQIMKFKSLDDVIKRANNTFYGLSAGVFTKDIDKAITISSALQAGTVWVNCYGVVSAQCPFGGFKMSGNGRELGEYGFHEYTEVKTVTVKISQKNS

Only a part is listed here, and it is no random draw. Records with an inconclusive call do not appear. Entries that show only a call come without a potency. Some structures show a salt or complex split into parts, the way the source records it. Active and inactive are the calls of the source. Calls follow the shape of the dose curve; as a rule, active = well fitted inhibition curve with a large enough effect (not every such curve was filed as active); inconclusive = small, poorly fitted or top-dose-only effect, or another doubt; inactive = no such curve, though single readings can be large or run the other way.
Potency is read from the fitted curve at half-maximal effect.

The assay addresses Aldehyde dehydrogenase 1A1 (Homo sapiens) (UniProt P00352). Description: qHTS Assay for Inhibitors of Aldehyde Dehydrogenase 1 (ALDH1A1). Conditions: Purified ALDH1A1, NADH fluorescence, propionaldehyde substrate; series mostly up to 75.3 µM.
`CCN(CCCl)Cc1ccccc1C`: the Potency result is “inactive”. For `CN(C)CCOC(=O)C(O)(c1ccccc1)C1CCCCC1` (centres undefined) the value was “inactive”.

Turning to `CCN(CC)CCCOC(=O)C(O)(c1ccccc1)C1CCCCC1` (centres undefined), the Potency entry is “inactive”.

For the compound `O=C(OCCN1CCN(CCOCc2ccccc2)CC1)C(O)(c1ccccc1)c1ccccc1`, the Potency entry is “inactive”. For the compound `CN(C)CCOC(=O)C(O)(c1ccccc1)C1CCCC1` (centres undefined), the Potency entry is “inactive”. Consider `CCN(CC)CC(O)COC(=O)C(O)(c1ccccc1)C1CCCCC1` (centres undefined), for which the Potency result was “inactive”. To `[Au].[Au].c1ccc([PH+](c2ccccc2)c2ccccc2)cc1.c1ccc([PH+](c2ccccc2)c2ccccc2)cc1.n1n[nH]c(-c2nnn[nH]2)n1` belongs active: 1780 nM; to `CCN(CC)CCCOC(=O)C(O)(c1ccccc1)c1ccccc1`, “inactive”; to `O=[N+]([O-])OCC(CO[N+](=O)[O-])(CO[N+](=O)[O-])CO[N+](=O)[O-]`, active: 1580 nM.
